Laboratory results as given in US4378344A, “Method and apparatus for performing multiple, simultaneous in vitro diagnostic tests using a solid phase system” (priority 1979, dated 1983).

Key:
[1] = test system: anti-T4; assay: % binding of 125I-T4 to anti-T4 coated tubes (Example 3); design: species or system rabbit
Method: (§1) 12×75 mm commercially available polystyrene tubes were utilized. […] The tubes and sticks were then washed.
(§2) The tubes and sticks were washed and air dried. […] The final coating procedure could utilize any rabbit antibody.
Two series were conducted for this example.

[2] = test system: anti-T4; assay: % binding of 125I-T4 to sticks coated with anti-T4 or with anti-digoxin and anti-T4 (Example 5); design: species or system rabbit
From the text: as §1, §2
This example describes the immobilizing of two antibodies to sticks using rabbit anti-digoxin and rabbit anti-thyroxin as the antibodies.
Nine fin sticks were coated with IgG and anti-antibody as described in Example 1. Anti-digoxin and anti-thyroxin were mixed prior to coating the anti-antibody coated sticks. These two antibodies were then immunologically bound to the anti-antibody coated sticks using the same buffer and for a period of 24 hours at room temperature. The sticks were then washed and dried after which they could be utilized to determine the amount of digoxin and thyroxin in a fluid sample.
Nine fin sticks were coated with (1) anti-T4 as described in Example 1 and (2) anti-digoxin and anti-T4 as described in Example 2. […] A stick coated with (1) anti-T4 and (2) anti-digoxin and anti-T4 were inserted in the tubes.

**Q.** Which “% Binding of ^125 I-T4” value ([1]; (1) no stick, 0 μg T4) does the source give for N[C@@H](Cc1cc(I)c(Oc2cc(I)c(O)c([125I])c2)c(I)c1)C(=O)O [^125 I-T4, ^125 I-Thyroxin] here?
**A.** 36%

**Q.** And the “% Binding of ^125 I-T4” value ([1]; (1) no stick, 2.5 μg T4)?
**A.** 29%

**Q.** What about the “% Binding of ^125 I-T4” value ([1]; (1) no stick, 5.0 μg T4) of the same compound?
**A.** 23%

**Q.** And the “% Binding of ^125 I-T4” value ([1]; (1) no stick, 10.0 μg T4)?
**A.** 16%

**Q.** And the “% Binding of ^125 I-T4” value ([1]; (1) no stick, 25.0 μg T4)?
**A.** 8%

**Q.** And the “% Binding of ^125 I-T4” value ([1]; (2) uncoated stick, 0 μg T4)?
**A.** 31%

**Q.** And the “% Binding of ^125 I-T4” value ([1]; (3) anti-digoxin coated stick, 0 μg T4)?
**A.** 30%

**Q.** And the “% Binding of ^125 I-T4” value ([1]; (3) anti-digoxin coated stick, 5.0 μg T4)?
**A.** 20%

**Q.** And the “% Binding of ^125 I-T4” value ([1]; (3) anti-digoxin coated stick, 25.0 μg T4)?
**A.** 7%

**Q.** And the “% Binding of ^125 I-T4” value ([2]; (1) anti-T4 stick, 0 μg T4, 1 h room temp)?
**A.** 56%

**Q.** And the “% Binding of ^125 I-T4” value ([2]; (1) anti-T4 stick, 2.5 μg T4)?
**A.** 37%

**Q.** And the “% Binding of ^125 I-T4” value ([2]; (1) anti-T4 stick, 5.0 μg T4)?
**A.** 24%

**Q.** What about the “% Binding of ^125 I-T4” value ([2]; (1) anti-T4 stick, 25.0 μg T4) of the same compound?
**A.** 7%

**Q.** And the “% Binding of ^125 I-T4” value ([2]; (2) anti-digoxin and anti-T4 stick, 0 μg T4)?
**A.** 55%

**Q.** And the “% Binding of ^125 I-T4” value ([2]; (2) anti-digoxin and anti-T4 stick, 2.5 μg T4)?
**A.** 35%

**Q.** What about the “% Binding of ^125 I-T4” value ([2]; (2) anti-digoxin and anti-T4 stick, 5.0 μg T4) of the same compound?
**A.** 26%

**Q.** What about the “% Binding of ^125 I-T4” value ([2]; (2) anti-digoxin and anti-T4 stick, 25.0 μg T4) of the same compound?
**A.** 8%
